# Measured values as given in patent publication US11999759B2, “Boronic acid derivatives and therapeutic uses thereof” (Qpex Biopharma, Inc., priority 2016, dated 2024).
# Amino acid sequences for entries named in this document (tags omitted). Residues count along the entry.
# UniProt C7C422, 29-270, looked up, species assumed: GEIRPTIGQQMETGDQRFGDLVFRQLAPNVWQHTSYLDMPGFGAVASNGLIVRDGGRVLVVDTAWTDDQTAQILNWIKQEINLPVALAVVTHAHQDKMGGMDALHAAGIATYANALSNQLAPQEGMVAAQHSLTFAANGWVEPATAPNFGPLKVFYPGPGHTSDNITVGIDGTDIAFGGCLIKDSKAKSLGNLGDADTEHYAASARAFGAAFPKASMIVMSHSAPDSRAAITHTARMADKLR
# pKi: −log10 of the molar value.
# Target: NDM-1 (Klebsiella pneumoniae, UniProt C7C422)
# Experiment: Inhibition of imipenem cleavage by purified NDM-1
# Assay type: biochemical
# Details: imipenem reporter substrate; 37° C.; read-out: Ki (NDM-1, IMI)
# Procedure: Ki values of inhibition of purified class B enzymes NDM-1 and IMP-1 were determined spectrophotometrically using imipenem as reporter substrate. Purified enzymes were mixed with various concentrations of inhibitors in reaction buffer and incubated for 10 min at room temperature. Imipenem was added and substrate cleavage profiles were recorded at 294 nm every 30 seconds for 30 minutes at 37° C. These experiments further confirmed that the described compounds have the ability to inhibit carbapenemase activity of metallo-beta-lactamases.
row,Structure (SMILES),pKi
1,"O=C(O)c1c(F)ccc2c1OB(O)C1CC21 (stereo not drawn) [Compound 4, 5-Fluoro-2-hydroxy-1a,7b-dihydro-1H-cyclopropa[c][1,2]benzoxaborinine-4-carboxylic acid]",6.00 to 7.00
2,"O=C(O)c1c(F)ccc2c1OB(O)[C@H]1C[C@@H]21 [Compound 12, (1aS,7bR)-5-fluoro-2-hydroxy-1a,7b-dihydro-1H-cyclopropa[c][1,2]benzoxaborinine-4-carboxylic acid]",6.00 to 7.00
3,"O=C(O)c1c(F)ccc2c1OB(O)[C@@H]1C[C@H]21 [Compound 13, (1aR,7bS)-5-fluoro-2-hydroxy-1a,7b-dihydro-1H-cyclopropa[c][1,2]benzoxaborinine-4-carboxylic acid]",> 7.00
